US10246442B2, “4-Aminoquinazolin compounds as prolyl hydroxylase inhibitors” (JANSSEN PHARMACEUTICA NV, priority 2011, dated 2019)

Protein sequences, listed by entry. Tags and fused reporters are not part of them. Residues count along the entry.
UniProt Q9GZT9, 181-417: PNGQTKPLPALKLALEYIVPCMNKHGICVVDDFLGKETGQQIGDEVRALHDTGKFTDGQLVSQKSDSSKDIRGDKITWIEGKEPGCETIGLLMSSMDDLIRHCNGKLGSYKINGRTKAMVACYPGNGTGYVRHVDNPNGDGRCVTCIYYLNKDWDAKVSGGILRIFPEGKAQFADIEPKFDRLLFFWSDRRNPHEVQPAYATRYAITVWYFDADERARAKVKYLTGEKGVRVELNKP

Biological target: PHD2181-417 (Homo sapiens (Human), UniProt Q9GZT9)
Assay: PHD enzymatic assay ([14C]-succinic acid production)
Format: biochemical
Details: purified PHD2181-417, HIF-1α peptide substrate, 30 min pre-incubation; average of results
Procedure: Expression and Purification of PHD2181-417
The human PHD2 expression construct containing amino acids 181-417 of GenBank Accession ID NM_022051 was cloned into a pBAD vector (Invitrogen), incorporating both an N-terminal histidine tag and a Smt3-tag, both of which are cleaved by Ulp1. Protein production was achieved by expression in BL21 cells grown in Terrific Broth containing 100 μg/ml ampicillin. Cell cultures were inoculated at 37° C. and grown to an OD600 of 0.8. Cultures were induced with 0.1% arabinose and grown overnight at 20° C. with continuous shaking at 225 rpm. Cells were then harvested by centrifugation and stored at −80° C. Cell pellets were suspended in Buffer A (50 mM Tris-HCl pH 7.2, 100 mM NaCl, 100 mM L-arginine, 1 mM TCEP, 0.05% (w/v) NP-40, 50 mM imidazole) followed by the addition of lysozyme and benzonase. Cells were lysed by sonication and the lysate was cleared by centrifugation (15,000 rpm, 90 min, 4° C.). The protein was purified by nickel affinity chromatography using a HisTrap Crude FF column (GE Healthcare). Samples were eluted in Buffer A with a 50-200 mM imidazole gradient. Cleavage of the Smt tag with Ulp1 protease was achieved via overnight incubation with dialyzing against Buffer A. The PHD2181-417 sample was then passed over a second HisTrap Crude FF column (GE Healthcare) to remove uncleaved protein. The flow-through was then dialyzed into 50 mM MES pH 6.0, 1 mM TCEP, 5 mM NaCl for ion exchange chromatography on a HiTrap SP Cation Exchange column (GE Healthcare). The PHD2181-417 protein was eluted with a 0-0.2 M NaCl gradient. Fractions were pooled for further purification by size exclusion chromatography over a Superdex 75 Size Exclusion Column (GE Healthcare). Final protein was concentrated to 4 mg/ml and dialyzed in 10 mM PIPES pH 7.0, 100 mM NaCl, 0.5 mM TCEP. The protein was determined to have a purity of >95% by gel electrophoresis.
The PHD enzymatic assay was performed in 0.5 ml of reaction mixture containing the following: purified PHD2181-417 polypeptide (3 μg), synthetic HIF-1α peptide comprising residues [[…]] (10 μM, California Peptide Research Inc., Napa, Calif.), and [5-^14C]-2-oxoglutaric acid (50 mCi/mmol, Moravek Chemicals, Brea, Calif.) in reaction buffer (40 mM Tris-HCl, pH 7.5, 0.4 mg/ml catalase, 0.5 mM DTT, 1 mM ascorbate) for 10 minutes. Compounds were pre-incubated for 30 min before starting the reaction (all test compounds were dissolved at 10 mM in 100% DMSO (w/v) and were tested with final compound concentrations at 100 μM in 1% DMSO (w/v)). The reaction was stopped by addition of 50 μl of 70 mM H3PO4 and 50 μl of 500 mM NaH2PO4, pH 3.2. Detection of [^14C]-succinic acid was achieved by separating from [5-^14C]-2-oxoglutaric acid by incubating the reaction mixture with 100 μl of 0.16 M DNP prepared in 30% perchloric acid. Next, 50 μl of unlabeled 20 mM 2-oxoglutaric acid/20 mM succinic acid, serving as carrier for the radioactivity, was added to the mixture, and was allowed to proceed for 30 minutes at room temperature. The reaction was then incubated with 50 μl of 1 M 2-oxoglutaric acid for 30 additional minutes at room temperature to precipitate the excess DNP. The reaction was then centrifuged at 2800×g for 10 minutes at room temperature to separate [^14C]-succinic acid in the supernatant from the precipitated [^14C]-dinitrophenylhydrazone. Fractions of the supernatant (400 μI) were counted using a beta counter (Beckman Coulter, Fullerton, Calif.). Inhibition of PHD2181-417 activity was measured as a decrease in succinic acid production. The IC50 values were estimated by fitting the data to a three-parameter logistic function using GraphPad Prism, version 4.02 (Graph Pad Software, San Diego, Calif.).

Enzyme pIC50	Structure (SMILES)
7.2	Cc1cccc(C)c1Oc1cc2c(N)nc(-n3cc(C(=O)O)cn3)nc2cc1F [Example 1, 1-[4-Amino-6-(2,6-dimethyl-phenoxy)-7-fluoro-quinazolin-2-yl]-1H-pyrazole-4-carboxylic acid]
7.2	Cc1cccc(C)c1Oc1cc2c(N(C)C)nc(-n3cc(C(=O)O)cn3)nc2cc1F [Example 3, 1-[4-Dimethylamino-6-(2,6-dimethyl-phenoxy)-7-fluoro-quinazolin-2-yl]-1H-pyrazole-4-carboxylic acid]
7.2	Cc1cccc(C)c1Oc1cc2c(Nc3ccccc3Cl)nc(-n3cc(C(=O)O)cn3)nc2cc1F [Example 7, 1-[4-(2-Chloro-phenylamino)-6-(2,6-dimethyl-phenoxy)-7-fluoro-quinazolin-2-yl]-1H-pyrazole-4-carboxylic acid]
7.2	Cc1cccc(C)c1Oc1cc2c(NCC3CC3)nc(-n3cc(C(=O)O)cn3)nc2cc1F [Example 15, 1-((4-Cyclopropanemethylamino)-6-(2,6-dimethylphenoxy)-7-fluoroquinazolin-2-yl)-1H-pyrazole-4-carboxylic acid]
5.9	Cc1cccc(C)c1CNc1nc(-n2cc(C(=O)O)cn2)nc2ccc(C3CCCCC3)cc12 [Example 23, 1-[6-Cyclohexyl-4-(2,6-dimethyl-benzylamino)-quinazolin-2-yl]-1H-pyrazole-4-carboxylic acid]
7.2	O=C(O)c1cnn(-c2nc(N3CCCCCC3)c3ccc(Oc4ccccc4)cc3n2)c1 [Example 87, 1-(4-(Azepan-1-yl)-7-phenoxyquinazolin-2-yl)-1H-pyrazole-4-carboxylic acid]
7.2	CCCN(CCC)c1nc(-n2cc(C(=O)O)cn2)nc2cc(Oc3ccccc3)ccc12 [Example 93, 1-(4-(Dipropylamino)-7-phenoxyquinazolin-2-yl)-1H-pyrazole-4-carboxylic acid]
7.2	CCN(CC)c1nc(-n2cc(C(=O)O)cn2)nc2ccc(OC3CCCCC3)cc12 [Example 174, 1-(6-(cyclohexyloxy)-4-(diethylamino)quinazolin-2-yl)-1H-pyrazole-4-carboxylic acid]
7.2	O=C(O)c1cnn(-c2nc(N3CCCC3)c3cc(OC4CCCCC4)ccc3n2)c1 [Example 175, 1-(6-(cyclohexyloxy)-4-(pyrrolidin-1-yl)quinazolin-2-yl)-1H-pyrazole-4-carboxylic acid]
